Only a part is listed here, and it is no random draw. Activity calls are given as the source filed them.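 Rule for the calls: active = mean replicate inhibition above about 79%, with every replicate also reaching it (limit read from the data); inconclusive = only one of the two criteria met; inactive = mean below limit and not every replicate reaching it.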

The chains behind the UniProt entries cited, without tags or fusion partners. Where a name states a change or a piece, a line headed by the entry shows the natural chain unless it says otherwise.
UniProt P55789: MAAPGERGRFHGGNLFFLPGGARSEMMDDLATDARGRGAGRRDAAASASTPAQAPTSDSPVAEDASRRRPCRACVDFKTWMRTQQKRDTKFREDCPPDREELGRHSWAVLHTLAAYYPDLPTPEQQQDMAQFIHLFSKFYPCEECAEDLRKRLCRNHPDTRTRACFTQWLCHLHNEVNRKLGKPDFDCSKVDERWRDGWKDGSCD

This is an account of results in PubChem BioAssay AID485317 (Broad Institute, 2010).

This assay addresses FAD-linked sulfhydryl oxidase ALR (Homo sapiens) (UniProt P55789). The assay can be described thus: inhibitors of human ALR sulfhydryl oxidase, primary screen, biochemical, H2O2 detection, HRP-luminol luminescence, single point (AID 485317). The settings on record: purified ALR, DTT oxidation, active compounds read high, concentration not given here.
On to `Clc1ccc(Cl)c(NC2=NCC(CBr)S2)c1` (stereo not given), for which the inhibition (in general, how much of the control response was suppressed) is active: 94.3%.
For `CC(=O)Nc1ccc(Oc2c([N+](=O)[O-])cc([N+](=O)[O-])cc2[N+](=O)[O-])cc1`, the inhibition was active: 99%.
With `CCOc1ccc(C2=NCC(CBr)S2)cc1` (stereo not given), the inhibition was active: 95.9%.
Next, `CS(=O)(=O)c1cc([N+](=O)[O-])c2no[n+]([O-])c2c1`: active: 95.1%.
The same measure for `CC(C)/C=N\N=C(\N)N[N+](=O)[O-]`: active: 100%.
